Target: recombinant human α5β1 (Homo sapiens, UniProt P05556+P08648)
Test: In Vitro Binding Assay (a): inhibition of binding of α5β1 integrin to a fragment of human fibronectin (Fn9-10), Origen electrochemiluminescence
Description: The assay determined the ability of compounds to inhibit binding of α5β1 integrin to a cognate ligand, a fragment of human fibronectin. The assay used Origen technology (IGEN International) to measure the compound activity. Briefly, α5β1 integrin was coated onto epoxy-paramagnetic beads (Dynal Biotech UK, Bromborough, Wirral, CH62 3QL, UK, Catalogue No 140.11) and biotinylated-fibronectin ligand was coupled to strepatividin labeled Tag-NHS-Ester (BioVeris Corporation, Witney, Oxfordshire, OX28 4GE, UK, Catalogue No 110034). The ruthenium-labeled tag emits an electrochemiluminescence signal upon stimulation which is detected by the Origen reader. […]
20 μg of recombinant human α5β1 was coated onto 4×10(7) epoxy-paramagnetic beads according to manufacturers instructions at 4° C. for 24 hours. Integrin coating and corresponding activity was subsequently measured for each batch but typically, 25 ng of coated protein was used per assay well. […]
For the assay, 25 ng (20 ul) of a5b1-bead suspension and 40 μl of the Fn9-10/Tag pre-incubated solution were added to each well containing 20 μl of compound or control solution. Assay plates were then incubated at room temperature for a minimum of 6 hours before being analysed on an Origen plate reader. […]

Protein sequences, listed by entry. Tags and fused reporters are not part of them. Residues count along the entry.
UniProt P08648, 42-1049: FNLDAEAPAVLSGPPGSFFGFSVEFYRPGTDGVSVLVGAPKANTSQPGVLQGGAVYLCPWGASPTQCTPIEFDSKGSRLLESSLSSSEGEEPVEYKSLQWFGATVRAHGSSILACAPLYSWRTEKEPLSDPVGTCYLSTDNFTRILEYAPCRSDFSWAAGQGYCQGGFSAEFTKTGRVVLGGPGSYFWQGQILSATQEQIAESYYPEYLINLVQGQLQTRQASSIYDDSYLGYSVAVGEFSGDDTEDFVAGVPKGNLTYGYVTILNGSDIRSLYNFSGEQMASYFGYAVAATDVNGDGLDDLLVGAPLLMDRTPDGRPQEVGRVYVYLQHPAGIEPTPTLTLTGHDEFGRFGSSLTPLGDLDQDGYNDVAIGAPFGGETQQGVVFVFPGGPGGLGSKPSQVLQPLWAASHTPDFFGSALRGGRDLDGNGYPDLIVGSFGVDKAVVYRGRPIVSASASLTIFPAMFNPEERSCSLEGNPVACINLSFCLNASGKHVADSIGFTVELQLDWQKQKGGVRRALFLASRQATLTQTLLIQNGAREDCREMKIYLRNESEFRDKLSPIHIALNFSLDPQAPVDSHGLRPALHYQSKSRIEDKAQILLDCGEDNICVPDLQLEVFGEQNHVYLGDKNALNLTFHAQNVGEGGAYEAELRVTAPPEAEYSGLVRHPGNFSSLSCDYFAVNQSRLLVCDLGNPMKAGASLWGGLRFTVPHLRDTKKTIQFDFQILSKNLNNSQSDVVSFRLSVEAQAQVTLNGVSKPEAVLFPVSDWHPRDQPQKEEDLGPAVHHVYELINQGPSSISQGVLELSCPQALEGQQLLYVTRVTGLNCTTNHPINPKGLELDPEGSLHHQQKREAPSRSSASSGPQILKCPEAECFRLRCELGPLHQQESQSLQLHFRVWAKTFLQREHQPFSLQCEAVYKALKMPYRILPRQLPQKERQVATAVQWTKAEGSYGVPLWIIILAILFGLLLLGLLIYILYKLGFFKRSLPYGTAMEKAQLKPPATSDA

CNc1cccc(CCOc2ccc(C[C@H](NC(=O)c3c(C)noc3C)C(=O)O)cc2)n1 [Example 1.9, N-[(3,5-dimethylisoxazol-4-yl)carbonyl]-O-{2-[6-(methylamino)pyridin-2-yl]ethyl}-L-tyrosine]
IC50: 1 nM
